From article PMC3483245, “Optimization of a direct spectrophotometric method to investigate the kinetics and inhibition of sialidases” (BMC Biochemistry, 2012)

By UniProt entry, the sequences of proteins in these tests, tags left out. Residues count along the entry.
UniProt P62576, 54-1035: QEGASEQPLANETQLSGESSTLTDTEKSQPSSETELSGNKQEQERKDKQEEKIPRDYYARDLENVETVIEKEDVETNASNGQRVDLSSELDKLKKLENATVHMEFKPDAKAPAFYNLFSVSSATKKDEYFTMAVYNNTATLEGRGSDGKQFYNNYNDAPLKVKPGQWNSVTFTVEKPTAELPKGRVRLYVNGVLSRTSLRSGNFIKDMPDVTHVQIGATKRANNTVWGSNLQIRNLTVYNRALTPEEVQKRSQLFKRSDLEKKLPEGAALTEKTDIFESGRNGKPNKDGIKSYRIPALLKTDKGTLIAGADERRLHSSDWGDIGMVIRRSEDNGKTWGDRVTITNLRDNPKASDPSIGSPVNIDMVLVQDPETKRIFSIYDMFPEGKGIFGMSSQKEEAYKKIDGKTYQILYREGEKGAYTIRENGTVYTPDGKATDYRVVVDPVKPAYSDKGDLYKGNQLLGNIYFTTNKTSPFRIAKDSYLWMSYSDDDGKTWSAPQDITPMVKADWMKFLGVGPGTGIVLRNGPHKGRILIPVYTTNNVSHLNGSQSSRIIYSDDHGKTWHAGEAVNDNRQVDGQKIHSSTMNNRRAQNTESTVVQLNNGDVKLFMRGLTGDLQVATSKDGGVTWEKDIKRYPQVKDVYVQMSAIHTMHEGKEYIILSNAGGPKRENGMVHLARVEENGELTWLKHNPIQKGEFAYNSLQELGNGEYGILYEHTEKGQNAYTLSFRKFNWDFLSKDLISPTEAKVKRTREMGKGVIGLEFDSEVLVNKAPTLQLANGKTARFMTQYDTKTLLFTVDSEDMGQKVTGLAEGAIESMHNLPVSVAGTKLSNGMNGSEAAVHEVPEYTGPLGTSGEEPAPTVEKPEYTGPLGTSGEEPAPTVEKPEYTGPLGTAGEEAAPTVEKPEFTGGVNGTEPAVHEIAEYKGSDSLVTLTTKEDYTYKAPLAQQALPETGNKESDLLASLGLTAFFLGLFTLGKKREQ

Molecular target: NanA (Streptococcus pneumoniae, UniProt P62576)
Experiment: biochemical

SMILES: CC(=O)N[C@H]1[C@H]([C@H](O)[C@H](O)CO)OC(C(=O)O)=C[C@@H]1O [Neu5Ac2en, 2-deoxy-2,3-didehydro-N-acetylneuraminic acid]
- Ki: 1600 nM
